Test: Clearance in rat at 1 mg/kg, iv
Format: ADME, organism-based
Design: dose 1 mg/kg, route intravenous
Settings: in vivo

- clearance: 22 mL/min/kg
Structure (SMILES): CC1CC(=O)NN=C1c1ccc(OCCCN2CCC[C@H]2C)cc1 (stereo in doubt; 19a)

Source: ChEMBL document CHEMBL1932917, “4,5-dihydropyridazin-3-one derivatives as histamine H₃ receptor inverse agonists” (Bioorg Med Chem Lett, 2012)
